According to patent US9682960B2 (priority 2013, dated 2017):
Several values for one entry are separate records, joined by “and”; a condition that tells them apart may be missing. Identical values can stand only once. Like-named read-outs stand apart in the source and are kept apart here.

Test system: castrated (CX) immature male rats bearing a DHT implant
Conditions: for CX + DHT Antagonistic activity % Inhibition Bulbo / CX + DHT Antagonistic activity % Inhibition SV / CX + DHT Antagonistic activity % Inhibition Prostate: 7 days; for CX + DHT Antagonistic activity % Inhibition Bulbo: bulbocavernosus muscles weight; for CX + DHT Antagonistic activity % Inhibition SV: seminal vesicles weight; for CX + DHT Antagonistic activity % Inhibition Prostate: ventral prostate weight
[1] = 0.5 mg/rat/po, listed as flutamide

SMILES | CX + DHT Antagonistic activity % Inhibition Bulbo (0.5 mg/rat/po) | CX + DHT Antagonistic activity % Inhibition SV (0.5 mg/rat/po) | CX + DHT Antagonistic activity % Inhibition Prostate (0.5 mg/rat/po) | CX + DHT Antagonistic activity % Inhibition Prostate (0.1 mg/rat/po) | further results
Cc1c(N2C(=O)NC(C)(C)C2=O)ccc(C#N)c1Cl [EM-9289] | −66% | 50% | 47% | – | –
CC1(C)C(=O)N(c2ccc(C#N)c(C(F)(F)F)c2)C(=O)N1CCCOc1ccc(-c2ccncc2)cn1 [EM-9114] | 98% | 88% | 65% | – | –
Cc1c(N2C(=O)C(C)(C)N(CCCOc3ccc(-c4ccncc4)cc3)C2=S)ccc(C#N)c1Cl [EM-8664] | −150% | −25% | 36% | – | –
Cc1c(N2C(=O)N(CCCOc3ccc(-c4ccncc4)cc3C(F)(F)F)C(C)(C)C2=O)ccc(C#N)c1Cl [EM-9309] | – | – | – | 19 ± 12 (n = 2, 0.1 mg/rat) % | CX + DHT Antagonistic activity % Inhibition Bulbo (0.1 mg/rat po): −53 ± 8 (n = 2, 0.1 mg/rat) %; CX + DHT Antagonistic activity % Inhibition SV (0.1 mg/rat po): 19 ± 8 (n = 2, 0.1 mg/rat) %
CC(C)C(=O)Nc1ccc([N+](=O)[O-])c(C(F)(F)F)c1 [FLU, flutamide, reference compound] | 67.3 ± 1.6 (n = 46) % | 82.8 ± 0.7 (n = 131) % | 47.9 ± 0.6 (n = 131) % | – | CX + DHT Antagonistic activity % Inhibition SV [1]: 83%; CX + DHT Antagonistic activity % Inhibition Prostate [1]: 48%
CC1(C)C(=O)N(c2ccc(C#N)c(Cl)c2)C(=O)N1CCCOc1ccc(-c2cc[n+]([O-])cc2)cc1Cl [EM-9156] | – | – | – | 27 ± 3% | CX + DHT Antagonistic activity % Inhibition Bulbo (0.3 mg/rat po): 57 (0.3 mg/ rat) %; CX + DHT Antagonistic activity % Inhibition SV (0.3 mg/rat po): 89 (0.3 mg/ rat) %; CX + DHT Antagonistic activity % Inhibition Prostate (0.3 mg/rat po): 55 (0.3 mg/ rat) %; antagonistic activity (in words) (immature castrated rats supplemented with DHT, 7 days oral): comparable to bicalutamide and flutamide
Cc1c(N2C(=O)N(Cc3ccc(-c4ccncc4)cc3)C(C)(C)C2=O)ccc(C#N)c1Cl [EM-9343] | – | – | – | 33 (0.1 mg/rat) % | CX + DHT Antagonistic activity % Inhibition Bulbo (0.1 mg/rat po): 38 (0.1 mg/rat) %; CX + DHT Antagonistic activity % Inhibition SV (0.1 mg/rat po): 64 (0.1 mg/rat) %
Cc1c(N2C(=O)N(CCCCc3ccc(-c4ccncc4)cc3)C(C)(C)C2=O)ccc(C#N)c1Cl [EM-9336] | – | – | – | 15 (0.1 mg/rat) % | CX + DHT Antagonistic activity % Inhibition Bulbo (0.1 mg/rat po): 13 (0.1 mg/rat) %; CX + DHT Antagonistic activity % Inhibition SV (0.1 mg/rat po): 29 (0.1 mg/rat) %
Cc1c(N2C(=O)C(C)(C)N(CCCOc3ccc(-c4ccncc4)cc3F)C2=S)ccc(C#N)c1Cl [EM-8723] | −57% | −10% | 35% | – | –
CC(C)NCc1ccc(OCCCN2C(=S)N(c3ccc(C#N)c(C(F)(F)F)c3)C(=O)C2(C)C)cc1 [EM-7105, reference compound] | – | – | 51% | 20 ± 7% | –
CC1(C)C(=O)N(c2ccc(C#N)c(C(F)(F)F)c2)C(=S)N1CCCOc1ccc(-c2ccncc2)cc1C(F)(F)F [EM-8900] | 29% | 79% | 54% | – | –
CC1(C)C(=O)N(c2ccc(C#N)c(C(F)(F)F)c2)C(=S)N1CCCOc1ccc(CN2CCC(O)C2)cc1 (centres unmarked) [EM-7365, reference compound] | – | – | 22% | – | –
Cc1c(N2C(=O)C(C)(C)N(CCCOc3ccc(-c4ccncc4)c(Cl)c3)C2=S)ccc(C#N)c1Cl [EM-8887] | −134% | −64% | 32% | – | –
CC(O)(CS(=O)(=O)c1ccc(F)cc1)C(=O)Nc1ccc(C#N)c(C(F)(F)F)c1 (centres unmarked) [CAS, bicalutamide, reference compound] | 74 ± 2 (n = 23) % | 89 ± 1 (n = 26) % | 53 ± 2 (n = 26) % | – | –
CC1(C)C(=O)N(c2ccc(C#N)c(C(F)(F)F)c2)C(=O)N1CCCOc1ccc(-c2cc[n+]([O-])cc2)c(F)c1 [EM-9067] | 80% | 89% | 54% | – | –
Cc1c(N2C(=O)C(C)(C)N(CCCOc3ccc(-c4ccncc4)c(C(F)(F)F)c3)C2=S)ccc(C#N)c1C(F)(F)F [EM-8821] | −134% | −5% | 34% | – | –
CC1(C)C(=O)N(c2ccc(C#N)c(C(F)(F)F)c2)C(=S)N1CCCOc1ccc(-c2cccnc2)cc1 [EM-8840] | 42% | 80% | 62% | – | –
CC1(C)C(=O)N(c2ccc(C#N)c(C(F)(F)F)c2)C(=O)N1CCCOc1ccc(-c2cc[n+]([O-])cc2)cc1 [EM-9000] | 90% | 85% | 53% | – | –
Cc1c(N2C(=O)N(c3ccc(-c4ccncc4)cc3)C(C)(C)C2=O)ccc(C#N)c1C(F)(F)F [EM-9344] | – | – | – | 35 ± 5 (n = 2, 0.1 mg/ rat) % | CX + DHT Antagonistic activity % Inhibition Bulbo (0.1 mg/rat po): 56 ± 3 (n = 2, 0.1 mg/ rat) %; CX + DHT Antagonistic activity % Inhibition SV (0.1 mg/rat po): 65 ± 6 (n = 2, 0.1 mg/ rat) %
CC1(C)C(=O)N(c2ccc(C#N)c(Cl)c2)C(=S)N1CCCOc1ccc(-c2ccncc2)cc1 [EM-9039] | 59% | 89% | 62% | – | –
Cc1c(N2C(=O)N(CCCOc3ccc(-c4cc[n+]([O-])cc4)cc3C(F)(F)F)C(C)(C)C2=O)ccc(C#N)c1Cl [EM-9319] | – | – | – | 26 ± 3 (n = 2, 0.1 mg/rat) % | CX + DHT Antagonistic activity % Inhibition Bulbo (0.1 mg/rat po): −59 ± 4 (n = 2, 0.1 mg/rat) %; CX + DHT Antagonistic activity % Inhibition SV (0.1 mg/rat po): 39 ± 19 (n = 2, 0.1 mg/rat) %
Cc1c(N2C(=O)C(C)(C)N(CCCOc3ccc(-c4ccncc4)cc3Cl)C2=S)ccc(C#N)c1C(F)(F)F [EM-8798] | 0% | 0% | 16% | – | –
Cc1c(N2C(=O)N(CCCOc3ccc(-c4ccncc4)c(F)c3)C(C)(C)C2=O)ccc(C#N)c1F [EM-9205] | 73% | 87% | 65% | – | –
Cc1c(N2C(=O)C(C)(C)N(CCCOc3ccc(-c4cccnc4)cc3)C2=S)ccc(C#N)c1Cl [EM-8656] | 0% | 0% | 17% | – | –
CC1(C)C(=O)N(c2ccc(C#N)c(C(F)(F)F)c2)C(=O)N1Cc1ccc(-c2cccnc2)cc1 [EM-9200] | 78% | 95% | 56% | – | –
Cc1c(N2C(=O)C(C)(C)N(CCCOc3ccc4cnccc4c3)C2=S)ccc(C#N)c1Cl [EM-8869] | 0% | 3% | 1% | – | –
Cc1c(N2C(=O)N(CCCOc3ccc(-c4cc[n+]([O-])cc4Cl)cc3)C(C)(C)C2=O)ccc(C#N)c1Cl [EM-9313] | – | – | – | 21 ± 8 (n = 2, 0.1 mg/rat) % | CX + DHT Antagonistic activity % Inhibition Bulbo (0.1 mg/rat po): −31 ± 17 (n = 2, 0.1 mg/rat) %; CX + DHT Antagonistic activity % Inhibition SV (0.1 mg/rat po): 47 ± 20 (n = 2, 0.1 mg/rat) %
Cc1c(N2C(=O)N(CCCOc3ccc(-c4ccncc4Cl)cc3)C(C)(C)C2=O)ccc(C#N)c1Cl [EM-9310] | – | – | – | 25 ± 8 (n = 2, 0.1 mg/rat) % | CX + DHT Antagonistic activity % Inhibition Bulbo (0.1 mg/rat po): −39 ± 25 (n = 2, 0.1 mg/rat) %; CX + DHT Antagonistic activity % Inhibition SV (0.1 mg/rat po): 37 ± 3 (n = 2, 0.1 mg/rat) %
CCNCc1ccc(OCCCN2C(=S)N(c3ccc(C#N)c(C(F)(F)F)c3)C(=O)C2(C)C)cc1 [EM-7148, reference compound] | – | – | – | – | CX + DHT Antagonistic activity % Inhibition Ventral prostate (0.5 mg/rat, s.c. (subcutaneous)): 58% and 58 (s.c.) %
CC1(C)C(=O)N(c2ccc(C#N)c(C(F)(F)F)c2)C(=O)N1CCOc1ccc(-c2cc[n+]([O-])cc2)cc1 [EM-9180] | 71% | 85% | 53% | – | –
